Earlier results, collected in EP2992879B1, “PHARMACEUTICAL COMPOSITION FOR […] OF MOTOR NEURONS AND USE THEREOF” (China Medical University, priority 2012, dated 2014).

Test system: SOD1-G93A transgenic mice
Conditions: SOD1-G93A transgenic mice treated with Riluzole; from Amyotrophic Lateral Sclerosis. 2009; 10: 85-94; cited from earlier work

## Nc1nc2ccc(OC(F)(F)F)cc2s1 [Riluzole]
  mice survived: 140 days
